From US20260382774A1, “DECREASED RETENTION OF MINIPROTEINS IN KIDNEY” (published 2026) come the findings set out here.

Protein sequences, listed by entry. Tags and fused reporters are not part of them. Residues count along the entry.
UniProt Q5ZPR3, 29-534 limits assumed: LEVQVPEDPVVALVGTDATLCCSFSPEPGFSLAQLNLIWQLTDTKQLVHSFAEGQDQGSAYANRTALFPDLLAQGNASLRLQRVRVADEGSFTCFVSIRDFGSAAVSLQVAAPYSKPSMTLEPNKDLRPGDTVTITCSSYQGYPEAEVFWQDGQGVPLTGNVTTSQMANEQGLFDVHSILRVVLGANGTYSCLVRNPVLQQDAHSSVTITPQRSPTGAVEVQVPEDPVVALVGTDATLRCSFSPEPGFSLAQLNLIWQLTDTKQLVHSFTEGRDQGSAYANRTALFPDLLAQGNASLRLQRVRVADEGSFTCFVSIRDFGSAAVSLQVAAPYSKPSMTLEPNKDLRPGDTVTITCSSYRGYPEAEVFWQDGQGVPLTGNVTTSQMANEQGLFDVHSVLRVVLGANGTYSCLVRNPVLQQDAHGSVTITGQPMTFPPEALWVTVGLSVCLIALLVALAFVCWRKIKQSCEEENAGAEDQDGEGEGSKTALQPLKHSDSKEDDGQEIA

The target in data set [1] is T1, B7H3 (Homo sapiens, UniProt Q5ZPR3). Nature of the data set: DELFIA whole cell binding assay (KD, Ki), B7H3. The conditions noted are these: read-out: DELFIA Ki, Table 4A.
Data set [2] addresses T1, B7H3. The data set can be described thus: Surface plasmon resonance binding, B7H3. The conditions noted are these: read-out: SPR KD, Table 4A. On the technique in general: In SPR one partner is held on a chip, and binding of the other changes the refractive index at the surface.
A short description of data set [3]: Radionuclide incorporation of DOTA-compounds (thin-layer chromatography). The note with it: Indium-111.
Data set [4] is described as follows: In vivo biodistribution of 111In-labeled test articles, SPECT/CT, kidney. The note with it: FIG. 5; Version 1 cleavable linker, vs C14; 4 and 24 hours.

As a reminder, the Ki is a measure of affinity in units of concentration, obtained from inhibition or displacement. For orientation: Kd means the constant that tells how readily two partners part at equilibrium. In the case of `CCCC[C@H](NC(=O)[C@@H](NC(=O)[C@H](CCC(N)=O)NC(=O)CNC(=O)[C@H](Cc1c[nH]cn1)NC(=O)[C@@H](NC(=O)[C@H](CC(C)C)NC(=O)[C@H](CC(N)=O)NC(=O)[C@@H]1CCCN1C(=O)[C@H](CC(C)C)NC(=O)[C@H](Cc1c[nH]c2ccccc12)NC(=O)[C@@H](NC(=O)[C@@H](NC(=O)[C@H](CCC(=O)O)NC(=O)[C@H](CO)NC(=O)[C@H](CC(C)C)NC(=O)[C@H](C)NC(=O)[C@H](C)NC(=O)[C@@H](NC(=O)[C@H](CCCCN)NC(=O)[C@H](CCC(=O)O)NC(=O)[C@H](CCCCN)NC(=O)[C@H](C)NC(=O)[C@H](Cc1ccc(O)cc1)NC(=O)[C@H](CCCCN)NC(=O)[C@H](C)NC(=O)[C@H](CCC(=O)O)NC(=O)[C@H](C)NC(=O)CCOCCOCCOCCOCCNC(=O)[C@H](CCCCN)NC(=O)[C@@H](NC(=O)[C@H](CCSC)NC(=O)CCOCCOCCOCCOCCNC(=O)CN1CCN(CC(=O)O)CCN(CC(=O)O)CCN(CC(=O)O)CC1)C(C)C)[C@@H](C)CC)[C@@H](C)CC)[C@@H](C)CC)[C@@H](C)O)[C@@H](C)CC)C(=O)N[C@@H](C)C(=O)N[C@@H](Cc1ccccc1)C(=O)N[C@H](C(=O)N[C@@H](C)C(=O)N[C@@H](C)C(=O)N[C@@H](CC(C)C)C(=O)N[C@@H](CC(N)=O)C(=O)N[C@@H](CC(=O)O)C(=O)N[C@@H](CC(=O)O)C(=O)N1CCC[C@H]1C(=O)N[C@@H](CO)C(=O)N[C@@H](CCC(N)=O)C(=O)N[C@@H](CO)C(=O)N[C@@H](CO)C(=O)N[C@@H](CCC(=O)O)C(=O)N[C@@H](CC(C)C)C(=O)N[C@@H](CC(C)C)C(=O)N[C@@H](CO)C(=O)N[C@@H](CCC(=O)O)C(=O)N[C@@H](C)C(=O)N[C@@H](CCCCN)C(=O)N[C@@H](CCCCN)C(=O)N[C@@H](CC(C)C)C(=O)N[C@@H](CC(N)=O)C(=O)N[C@@H](CC(=O)O)C(=O)N[C@@H](CO)C(=O)N[C@@H](CCC(N)=O)C(=O)N[C@@H](C)C(=O)N1CCC[C@H]1C(=O)N[C@@H](CCCCN)C(N)=O)[C@@H](C)CC.[In+3]`, the Ki at B7H3 [1] stood at 13.7 nM. Besides, the Kd on B7H3 [2] was 8.56 nM.

With `CC[C@H](C)[C@@H]1NC(=O)[C@H](CC(=O)O)NC(=O)CNC(=O)CNC(=O)[C@H](CCCNC(=N)N)NC(=O)[C@H](CC(C)C)NC(=O)[C@H](CCCNC(=N)N)NC(=O)[C@H](CCCCN)NC(=O)[C@H](CC(C)C)NC(=O)[C@H](C)NC(=O)[C@H]([C@@H](C)O)NC(=O)[C@H](Cc2ccccc2)NC(=O)[C@H](Cc2ccccc2)NC(=O)[C@H](CCC(=O)O)NC(=O)[C@H](CCC(=O)O)NC(=O)[C@H](CC(=O)O)NC(=O)[C@H](Cc2ccc(O)cc2)NC(=O)[C@H](CCC(=O)O)NC(=O)[C@@H](NC(=O)CCOCCOCCOCCOCCNC(=O)[C@H](CCCCN)NC(=O)[C@H](Cc2c[nH]c3ccccc23)NC(=O)[C@H](CCSC)NC(=O)CCOCCOCCOCCOCCNC(=O)CN2CCN(CC(=O)O)CCN(CC(=O)O)CCN(CC(=O)O)CC2)CSSC[C@@H]2NC(=O)[C@H](CC(C)C)NC(=O)[C@H](CCCCN)NC(=O)[C@@H]3CCCN3C(=O)[C@H](C(C)C)NC(=O)[C@H](CCCCN)NC(=O)[C@H](CCCCN)NC(=O)[C@H](Cc3ccccc3)NC(=O)[C@H](CCCCN)NC(=O)[C@H](CCCCN)NC(=O)[C@H](CCCCN)NC(=O)[C@H]([C@@H](C)CC)NC(=O)[C@H](Cc3ccc(O)cc3)NC(=O)[C@H](Cc3ccc(O)cc3)NC(=O)[C@H](CSSC[C@@H](C(N)=O)NC(=O)CNC(=O)[C@H](CC(C)C)NC(=O)[C@H](CCCCN)NC(=O)[C@H](CC(=O)O)NC(=O)[C@H](CC(C)C)NC(=O)[C@H]([C@@H](C)CC)NC(=O)[C@H](CCC(=O)O)NC(=O)[C@H](CCC(=O)O)NC(=O)[C@H]([C@@H](C)CC)NC2=O)NC1=O`, in data set [3], the “% radionuclide incorporation” value was found to be 94.7%. The “kidney uptake and retention” value in data set [4] was “minimal alterations”.
